The results in this text go back to patent US6790958B2, “Purine inhibitors of cyclin dependent kinase 2 & IKBA” (priority 1996, dated 2004).

One assay addresses CDK2 (Homo sapiens, UniProt P24941). The experiment in a line: CDK2 assay (histone H1 phosphorylation, 32P-ATP filter assay). Type of assay: biochemical. The settings on record: concentration required to inhibit CDK2 activity by 50%; histone H1, 30 μM ATP, 30° C., 30 min.
The subject of assay [1] is rat aortic smooth muscle cells. The experiment in a line: Cell proliferation assay, rat aortic smooth muscle cells (MTS). Type of assay: cell-based. The settings on record: 48 hr incubation.

Values after ≈ are worked out from the molar mass of the structure shown.

Take `CC(C)n1cnc2c(NCc3ccc(Cl)cc3)nc(N(CCO)CCNCCO)nc21`: the “IC50 (μg/mL) enzyme” value on CDK2 was 0.43 µg/mL (≈ 0.96 µM). For `CC(C)n1cnc2c(NCc3ccc(Cl)cc3)nc(NCCNCCO)nc21`, the “IC50 (μg/mL) enzyme” value against CDK2 was determined as 2.02 µg/mL (≈ 5 µM). In the case of `COC(=O)c1ccc(Cn2cnc3c(NCc4ccc(OC)cc4)nc(Cl)nc32)cc1`, the “IC50 (μg/mL) enzyme” value against CDK2 was 60 µg/mL (≈ 137 µM). On the same count and under the same terms, the figure for `COc1ccc(CNc2nc(Cl)nc3c2ncn3C(F)(F)F)cc1` is more than 60 µg/mL. As to `CC(C)n1cnc2c(NCc3ccc(Cl)cc3)nc(N(CCN)CCO)nc21` [2-[(2-aminoethyl)(6-{[(4-chlorophenyl)methyl]amino}-9-(methylethyl)purin-2-yl)amino]ethan-1-ol], the “IC50 (μg/mL) enzyme” value on CDK2 was 0.07 µg/mL (≈ 0.173 µM). Also, the “IC50 (μg/mL) cells” value in assay [1] amounted to 0.2 µg/mL (≈ 0.495 µM). In the same order, the values of `CC(N)CNc1nc(NCc2ccc(Cl)cc2)c2ncn(C(C)C)c2n1` (centres unmarked) [{2-[(2-aminopropyl)amino]-9-(methylethyl)purin-6-yl}[(4-chlorophenyl)methyl]amine] are 0.05 µg/mL (≈ 0.134 µM) and 0.1 µg/mL (≈ 0.267 µM).
